Values of other authors as cited in US20070287647A1, “Nail Polish Remover” (priority 2006, published 2007).

Conditions: in vapor

In the case of `CC(C)CON=O` [isobutyl nitrite], the inhalation toxicity level is listed as “about 600 ppm”.
